# Tests used:
# By UniProt entry, the sequences of proteins in these tests, tags left out. Residues count along the entry.
# UniProt P04070, 43-197 limits assumed: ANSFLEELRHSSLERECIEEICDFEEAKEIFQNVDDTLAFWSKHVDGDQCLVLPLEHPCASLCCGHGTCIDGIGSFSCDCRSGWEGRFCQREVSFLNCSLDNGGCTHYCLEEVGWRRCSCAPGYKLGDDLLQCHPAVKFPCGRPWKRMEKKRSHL
# UniProt P04070, 212-461 limits assumed: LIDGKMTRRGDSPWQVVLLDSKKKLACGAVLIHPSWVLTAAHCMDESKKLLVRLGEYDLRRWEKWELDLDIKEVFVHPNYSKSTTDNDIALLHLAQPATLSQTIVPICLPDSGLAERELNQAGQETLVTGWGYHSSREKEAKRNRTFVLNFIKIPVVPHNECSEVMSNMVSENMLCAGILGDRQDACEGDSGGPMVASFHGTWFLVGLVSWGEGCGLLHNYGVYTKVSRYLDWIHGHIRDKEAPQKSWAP
# [1] = target: T1, activated protein C (APC) (Homo sapiens, UniProt P04070); assay: APC activity assay (Accucolor assay, modified for aqueous environment); assay type: biochemical; settings: 40 μM chelator with APC 2 mg/L, no added copper, 30 min 37° C., mean±SD
# T1 construct: purchased Sigma (St. Louis, Mo.) P2200
# Method: Materials. The human albumin N-terminus analogue, d-DAHK, was synthesized by Bowman Research, Ltd (Newport, Wales, U.K.). The assay for APC anticoagulant activity was the Accucolor™ calorimetric assay (Sigma Diagnostics, St. Louis, Mo.). APC (Sigma, product number P2200), HSA (Sigma, product number A1653), and all other chemicals were obtained from Sigma (St. Louis, Mo.). Copper content of APC was determined by graphite furnace atomic absorption (Galbraith Laboratories, Knoxville, Tenn.).
# APC activity assay. The APC assay, originally designed for plasma samples (Francis et al., Am. J. Clin. Pathol. 87, 619-625 (1987)) was modified for use in a clean, aqueous environment. Solutions of CuCl2, HSA, and d-DAHK were prepared in 20 mM KH2PO4 buffer (pH 7.4). Experiments were performed in a 96-well plate. […] Concentrated acetic acid was added to each well to stop the reaction and the results were read at 410 nm on a microplate fluorescence reader (Model FL600, Bio-Tek Instruments, Inc., Winooski, Vt.). APC activity for copper alone, HSA alone, d-DAHK alone, and all combinations of HSA:CuCl2, and d-DAHK:CuCl2 were expressed as the mean percent change (±standard deviation) from baseline APC activity using buffer alone.
# [2] = compared to electrolyte solution alone; cited from earlier work
substance,measurement,setting,value
"HSA: human serum albumin (Sigma, product number A1653)","increase over baseline APC activity, chelator alone",[1],202.1%±48.1
same,effect on hemodynamic parameters and survival,[2],improve hemodynamic parameters and survival
